Assay results: US11484525B2 (priority 2015, dated 2022)

System: μOR
Experiment: Radioligand competition binding vs 3H-diprenorphine at μOR
Details: read-out: Kd of radioligand; μOR containing Sf9 insect cell membranes

**Q.** With ^3H-diprenorphine as the substance, how does the pKd read?
**A.** The pKd was 9.40.

pKd: −log10 of the molar value. Only a part of the results on these compounds is given; other tests are left out.
